## scFv variants of Ab-14 (light chain) against a SARS-CoV-2 spike peptide

All variants were tested on one target, the spike HR2 peptide PDVDLGDISGINAS (SARS-CoV-2).

Ab-14 is the parent antibody, in scFv form: VH, then three GGGGS repeats, then VL. The heavy chain is unchanged in all variants.
VH: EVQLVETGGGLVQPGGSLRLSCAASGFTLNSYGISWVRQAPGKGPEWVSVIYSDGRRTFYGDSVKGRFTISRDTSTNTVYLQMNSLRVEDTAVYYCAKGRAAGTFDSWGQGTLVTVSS
VL: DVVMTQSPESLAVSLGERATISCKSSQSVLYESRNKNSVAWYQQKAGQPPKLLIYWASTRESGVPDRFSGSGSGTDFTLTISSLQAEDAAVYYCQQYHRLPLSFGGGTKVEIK

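This is the validation round: designs drawn from the data on random variants, tested in the same kind of assay. Their group label is 14L_GP_HC (GP: Gaussian process model; HC: hill climbing; a sequence that several methods proposed may carry one label only). The assay is AlphaSeq: two haploid yeast populations carry antibody and antigen on their surface. The frequency of each diploid, read from paired DNA barcodes, reflects how well the two displayed proteins bind. Read counts were normalised to the haploid input and turned into Kd by a linear fit to BCL2-family pairs of known affinity, for each replicate. The assay was run in six technical replicates.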

Sequences are complete VL domains.
Values are log10 of the apparent Kd in nM; lower means stronger binding.

VL,"replicates, log10 nM",control signals
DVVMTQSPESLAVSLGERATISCKLRQQTLYESRNKNSVAWYQQKAGQPPKLLIYHASTREEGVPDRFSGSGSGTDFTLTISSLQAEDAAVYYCQQYHRLPLSFGGGTKVEIK,1.03 / 0.87 / 0.51 / 0.73 / 0.80 / 1.54,0/18
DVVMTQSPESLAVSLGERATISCKSSYSYLGESRNKNSVAWYQQKAGQPPKLLIYEASTRESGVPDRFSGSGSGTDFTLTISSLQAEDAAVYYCQQYHRLPLSFGGGTKVEIK,-0.32 / -0.38 / -0.33 / -0.03 / -0.17 / -0.22,0/18
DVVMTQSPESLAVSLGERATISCKSSQSELYESRNKNSVAWYQQKAGQPPKLLIYDASQRESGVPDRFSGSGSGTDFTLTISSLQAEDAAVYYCQQYHRLPLSFGGGTKVEIK,0.79 / 0.52 / 0.42 / 0.22 / 0.91 / 1.26,0/18
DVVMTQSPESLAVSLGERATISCKLSQSHLYDSRNKNSVAWYQQKAGQPPKLLIYNASTRESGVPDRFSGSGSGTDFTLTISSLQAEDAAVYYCQQYHRLPLSFGGGTKVEIK,-0.17 / -0.13 / -0.35 / -0.24 / -0.31 / -0.08,2/18 (3.06)
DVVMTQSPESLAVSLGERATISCKFSQSGLYESRTKNSVAWYQQKAGQPPKLLIYNAVTRETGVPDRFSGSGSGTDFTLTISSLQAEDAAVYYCQQYHRLPLSFGGGTKVEIK,-0.02 / -0.19 / -0.10 / -0.29 / -0.23 / 0.05,0/18
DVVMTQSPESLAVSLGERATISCKSSISQLGESRNKNSVAWYQQKAGQPPKLLIYEASTRESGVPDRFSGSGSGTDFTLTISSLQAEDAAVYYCQQYHRLPLSFGGGTKVEIK,0.38 / 0.87 / 0.38 / 0.28 / 0.35 / 0.80,0/18
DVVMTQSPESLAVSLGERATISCKLVNSTLYESRQKNSVAWYQQKAGQPPKLLIYKASTRESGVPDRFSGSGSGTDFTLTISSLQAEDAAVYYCQQYHRLPLSFGGGTKVEIK,1.34 / 1.21 / 1.43 / 1.88 / 0.98 / 1.52,0/18
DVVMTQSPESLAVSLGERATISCKLSQSVLYESRNKNSVAWYQQKAGQPPKLLIYDASTRESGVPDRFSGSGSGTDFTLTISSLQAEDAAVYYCQQYHRLPLDFGGGTKVEIK,0.03 / 0.41 / 0.37 / 0.59 / 0.16 / 1.12,0/18
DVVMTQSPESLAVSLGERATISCKLSQSWLYEDRVKNSVAWYQQKAGQPPKLLIYGASQRESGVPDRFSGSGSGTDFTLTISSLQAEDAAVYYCQQYHRLPLSFGGGTKVEIK,0.39 / 0.12 / 0.23 / -0.05 / 0.03 / 0.21,1/18 (2.79)
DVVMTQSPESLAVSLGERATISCKFSQWVLYESRTGNSVAWYQQKAGQPPKLLIYNASTRESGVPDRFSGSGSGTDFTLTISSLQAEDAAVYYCQQYHRLPLSFGGGTKVEIK,0.28 / 0.07 / 0.22 / 0.08 / 0.18 / 0.30,0/18
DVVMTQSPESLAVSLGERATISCKFSQSVYYESRTKNSVAWYQQKAGQPPKLLIYNASTRESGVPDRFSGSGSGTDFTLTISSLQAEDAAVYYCQQYHRLPLSFGGGTKVEIK,0.27 / 0.32 / -0.03 / 0.07 / 0.15 / 0.29,0/18
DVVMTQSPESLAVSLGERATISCKFSDSVLLESRDKNSVAWYQQKAGQPPKLLIYNASTRESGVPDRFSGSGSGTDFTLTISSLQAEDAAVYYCQQYHRLPLSFGGGTKVEIK,0.23 / 0.05 / 0.22 / 0.22 / 0.13 / 0.40,4/18 (2.75)
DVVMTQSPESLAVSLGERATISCKLDQSTLYESRNKNSVAWYQQKAGQPPKLLIYLASTRESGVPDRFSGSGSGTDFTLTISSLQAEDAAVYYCQQYHRLPLSFGGGTKVEIK,0.83 / 0.67 / 0.33 / 0.53 / 0.57 / 0.72,0/18
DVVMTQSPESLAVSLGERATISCKYYPSYLYESRNKNSVAWYQQKAGQPPKLLIYQASTRESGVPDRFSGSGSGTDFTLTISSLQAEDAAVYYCQQYHLLPLSFGGGTKVEIK,0.88 / 0.76 / 0.45 / 0.49 / 0.78 / 0.69,1/18 (3.45)
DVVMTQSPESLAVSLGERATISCNLSQSVLYESRNKNSVAWYQQKAGQPPKLLIYGGNTRESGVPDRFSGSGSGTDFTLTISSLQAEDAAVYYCQQYHRLPLSFGGGTKVEIK,-0.18 / -0.22 / -0.30 / -0.28 / -0.41 / -0.11,2/18 (3.02)
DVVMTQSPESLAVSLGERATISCKSSQSWLYESRNKNSVAWYQQKAGQPPKLLIYGASTRVSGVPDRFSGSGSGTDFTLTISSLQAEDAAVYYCQQYHRLPLSFGGGTKVEIK,-0.24 / -0.07 / -0.15 / -0.38 / -0.28 / 0.14,1/18 (2.55)
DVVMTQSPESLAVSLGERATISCKSGWGVLYESRNKNSVAWYQQKAGQPPKLLIYGASTRESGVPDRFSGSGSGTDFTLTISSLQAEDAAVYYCQQYHRLPLSFGGGTKVEIK,-0.05 / -0.14 / -0.29 / -0.07 / -0.16 / -0.09,0/18
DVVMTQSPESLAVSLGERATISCKSSQSVDLESRNKNSVAWYQQKAGQPPKLLIYDASTRESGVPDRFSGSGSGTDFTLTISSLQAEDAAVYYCQQYHRLPLSFGGGTKVEIK,0.36 / 0.48 / 0.21 / 0.14 / 0.43 / 0.45,0/18
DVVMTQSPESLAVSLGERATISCKSSISVLYESMNKNSVAWYQQKAGQPPKLLIYEASQRESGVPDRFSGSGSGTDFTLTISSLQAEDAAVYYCQQYHRLPLSFGGGTKVEIK,0.08 / 0.62 / -0.04 / 0.32 / 0.53 / 0.81,0/18
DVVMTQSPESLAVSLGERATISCAVSQGWLYESRNKNSVAWYQQKAGQPPKLLIYGASTREDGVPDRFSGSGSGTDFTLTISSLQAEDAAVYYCQQYHRLPLSFGGGTKVEIK,0.43 / 0.60 / 0.35 / 0.35 / 0.69 / 0.53,1/18 (3.56)

A selection of 2 entries from above:

{"VL": "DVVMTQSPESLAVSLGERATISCKSSQSELYESRNKNSVAWYQQKAGQPPKLLIYDASQRESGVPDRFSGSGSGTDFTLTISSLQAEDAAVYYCQQYHRLPLSFGGGTKVEIK", "replicates, log10 nM": "0.79 / 0.52 / 0.42 / 0.22 / 0.91 / 1.26", "control signals": "0/18"}
{"VL": "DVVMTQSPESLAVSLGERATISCKLSQSWLYEDRVKNSVAWYQQKAGQPPKLLIYGASQRESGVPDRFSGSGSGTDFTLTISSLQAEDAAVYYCQQYHRLPLSFGGGTKVEIK", "replicates, log10 nM": "0.39 / 0.12 / 0.23 / -0.05 / 0.03 / 0.21", "control signals": "1/18 (2.79)"}

Empty control strains, which show no peptide, gave a signal in 4% of pairings with all light chain designs; the median was 2.64 and 95% of these signals were weaker than 1.59. No background was subtracted. Also given: how often the same scFv was detected with the empty control strains, with their mean in brackets.
Of ten entries with the parent sequence, four were seen in most replicates (averages 0.34 to 2.37), three in one and three in none, so single entries are noisy.
The authors' rule: three or more of the six replicates give a measured affinity, fewer mean a poor binder.
A sequence measured in both rounds can read differently, since the two assays cover different ranges.

From the AlphaSeq antibody data of Li et al. 2023 (doi:10.1038/s41467-023-39022-2), copy in the FLAb collection.